Measured values as given in EP4840921A1, “HOT MELT ADHESIVE, METHOD FOR PRODUCING SAME, AND COATING METHOD” (dated 2026).

Legend:
[1] = Thermogravimetric (TG) measurement, 10% weight loss temperature; settings: temperature increased at 10°C/min
Protocol: Here, the 10% weight loss temperature in TG measurement means a temperature at a time point at which, in TG measurement when the temperature of the antibacterial agent having a paraben structure is increased at 10°C/min, the weight has decreased by 10% by weight relative to the weight before the temperature increase (that is, the weight of the antibacterial agent having a paraben structure has become 90% relative to the weight before the temperature increase). Hereinafter, in the present specification, the 10% weight loss temperature in TG measurement may be referred to as "T10".

[2] = Checking of vaporization of antibacterial agent during preparation (kneading) of hot-melt adhesive
Protocol: A method for producing a hot-melt adhesive in accordance with an embodiment of the present invention includes a step of kneading an antibacterial agent having a paraben structure and having a 10% weight loss temperature of not lower than 200°C in thermogravimetric measurement and a composition containing a base polymer and a tackifier, while maintaining a temperature of not higher than 140°C. […] Kneading the antibacterial agent having a paraben structure and the composition containing the base polymer and the tackifier while maintaining a temperature of not higher than 140°C is preferable because vaporization of the antibacterial agent having a paraben structure during kneading can be prevented. […]
In a case where deposits were present on the top plate of the container, the deposits were collected, and an FT-IR spectrum was measured. A case where an absorption peak derived from the antibacterial agent was detected in the FT-IR spectrum was determined as the "presence" of vaporization, and a case where an absorption peak derived from the antibacterial agent was not detected was determined as the "absence" of vaporization.

SMILES: CCCCCCOC(=O)c1ccc(O)cc1
- T10 (10% weight loss temperature in TG measurement) [1]: T10: 210.3 °C
- Vaporization of antibacterial agent during kneading ([2]; kneaded at 140°C): vaporization was not observed
- Vaporization of antibacterial agent during kneading ([2]; kneaded at 160°C for 1 hour): vaporization was observed

SMILES: CCCCC(CC)COC(=O)c1ccc(O)cc1 (stereo not drawn)
- T10 (10% weight loss temperature in TG measurement) [1]: T10: 208.6 °C

SMILES: CCCCCCCCCCCCCCCCOC(=O)c1ccc(O)cc1
- T10 (10% weight loss temperature in TG measurement) [1]: T10: 271.0 °C

SMILES: O=C(OCc1ccccc1)c1ccc(O)cc1
- T10 (10% weight loss temperature in TG measurement) [1]: T10: 238.2 °C
